Screening results from PubChem.
Shown are actives, neighbours in structure and some others; about 1% of the full set was active somewhere.
CDK5 inh = CDK5/p35 (human) kinase inhibition; AID 488839; inhibition, % at 10 µM; Q00535+Q15078; Recombinant CDK5/p35, ADP-Glo luminescence, 60 min; 0.01% of 330,000 active;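 active means highest replicate inhibition of at least 50% and at least 75% of replicates reaching 50%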;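 further: plate controls were DMSO neutral control for no effect and GW8510 at 10 µM for full effect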
UUG fidelity = alters start codon recognition fidelity in yeast; S. cerevisiae UUG-firefly luciferase reporter, luminescence/redox ratio; activity score, % at 18.7 µM; actives 0.13% (n = 350,000); AID 602363;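 active = replicate mean at a twofold rise or more, about +100% in these data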;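 also: firefly luciferase made from a UUG start codon reports start codon fidelity; reporter light over untreated wells divided by growth signal over untreated wells; some hits fall short of that in this replicate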
Cneo AK release = causes C. neoformans cell lysis. adenylate kinase release luminescence, 4 h; normalised: neutral wells 0, clomiphene wells 100. lysis activity, % at 15 µM. 0.2% of 360,000 active. AID 651654;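 active means mean lysis activity across replicates of at least 80%, whatever share of replicates individually reach that level; inactive means mean lysis activity below 80%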
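Test system: log-phase Cryptococcus neoformans yeast cells; Quantity: yeast cell density of 5 × 10^6 cells/mL; Buffer or medium: YPD; Doses: single compound concentration per well; Timing: 4 h at 37 °C static, read 1 h later; Measured by: AK luminescence; Read-out basis: lysis from increased AK signal; Control set: Clomiphene as positive control.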
Rtt109 Vps75 = inhibitors of Candida albicans Rtt109/Vps75 histone acetyltransferase; Q5AAJ8; purified Rtt109/Vps75, ThioGlo CoA-SH fluorescence, 4 h; inhibition, % at 34.9 µM; 0.16% of 330,000 active; AID 540336;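 active means inhibition of at least 50% in every replicate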
C2C12 statin = suppression of simvastatin myotoxicity; rescue of ATP level, % at 7.49 µM; 0.78% of 330,000 active; C2C12 myotubes + simvastatin, ATP luminescence, 48 h; scaled: DMSO 0, geranylgeraniol control 100; AID 602340;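 active means mean ATP rescue above about 67%, or every replicate alone reaching that limit, limit read from the data, passing the limit was not always enough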;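 further: myotubes were challenged with 10 µM simvastatin during compound exposure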
* marks the source's active call; other numbers are inactive results; . = no result.

Each structure is followed by: CDK5 inh	UUG fidelity	Cneo AK release	Rtt109 Vps75	C2C12 statin
1) COc1cccc(NC(=O)N(C)C[C@@H]2Oc3ncc(C#Cc4ccc(F)cc4)cc3C(=O)N([C@@H](C)CO)C[C@H]2C)c1
→ .	14.9	16.4	.	72.5*
2) C[C@H](CO)N1C[C@H](C)[C@@H](CN(C)C(=O)Nc2cccc(F)c2)Oc2ncc(C#CCN(C)C)cc2C1=O
→ .	25.6	0.5	.	1.8
3) C[C@H]1CN([C@@H](C)CO)C(=O)c2cc(-c3ccc(C#N)cc3)cnc2O[C@@H]1CN(C)C(=O)Nc1ccc(F)cc1
→ .	-5.2	1.9	.	-16.2
4) C[C@H]1CN([C@@H](C)CO)C(=O)c2cc(C#CCN(C)C)cnc2O[C@@H]1CN(C)C(=O)Nc1cccc(F)c1
→ .	25.8	113.5*	.	-6.7
5) C[C@H](CO)N1C[C@H](C)[C@H](CN(C)C(=O)Nc2cccc(F)c2)Oc2ncc(C#CCN(C)C)cc2C1=O
→ .	31.8	97.3*	.	-5.8
6) C[C@@H]1CN([C@H](C)CO)C(=O)c2cc(-c3ccc(C#N)cc3)cnc2O[C@@H]1CN(C)C(=O)Nc1ccc(F)cc1
→ .	22.4	82.9*	.	-0.5
7) COCC#Cc1cnc2c(c1)C(=O)N([C@H](C)CO)C[C@@H](C)[C@H](CN(C)Cc1ccc(F)cc1)O2
→ .	-11.0	0.3	.	8.3
8) C[C@H](CO)N1C[C@H](C)[C@@H](CN(C)S(=O)(=O)c2ccsc2)OCc2ccccc2-c2c(n(C)c3ccccc23)C1=O
→ .	.	-3.6	.	.
9) C[C@H](CO)N1C[C@H](C)[C@H](CN(C)C(=O)Nc2ccc3c(c2)OCO3)Oc2ncc(C#CC(C)(C)O)cc2C1=O
→ .	24.5	113.0*	.	-6.2
10) COCC(C)n1c(C)cc(C(=O)COC(=O)c2oc3ccccc3c2C)c1C (configuration not stated)
→ 1.9	-20.3	-0.8	-0.4	73.3*
11) CO[C@H]1CN(C)C(=O)c2cc(NS(C)(=O)=O)ccc2OC[C@@H](C)N(C(=O)C2CCC2)C[C@H]1C
→ .	-16.3	0.1	.	5.8
12) CCSc1ccccc1C(=O)Nc1ccc([N+](=O)[O-])cc1OC
→ 3.9	.	.	55.3*	.
13) COc1ccccc1-c1c(C)nn2c(N3CCC4(CC3)OCCO4)cc(C)nc12
→ 2.3	-14.7	6.1	9.0	85.3*
14) COc1ccccc1-c1c(C)nn2c(N3CCC(C)CC3)cc(C)nc12
→ 2.4	.	.	28.0	-12.6
15) O=C(Cn1cnc2c(cnn2-c2ccc(Cl)cc2)c1=O)NCC1CCCO1 (configuration not stated)
→ -0.5	-4.3	0.9	7.9	84.7*
16) Cc1ccc(-n2ncc3c(=O)n(CC(=O)NCC4CCCO4)cnc32)cc1 (configuration not stated)
→ 1.0	-16.1	-4.4	-4.8	8.8
17) CCC(C)N(C)Cc1cccc(C2(O)CCN(S(=O)(=O)c3ccc(F)cc3)CC2)c1 (configuration not stated)
→ 0.6	8.7	0.9	-3.3	122.7*
18) C[C@@H]1CN([C@H](C)CO)C(=O)Cc2cc(NC(=O)Nc3cccc4ccccc34)ccc2O[C@@H]1CN(C)S(=O)(=O)c1ccc(F)cc1
→ .	-8.1	-7.7	.	53.4
19) CC(C)NC(=O)CN1C(=O)NC(CCc2ccccc2)C1=O (configuration not stated)
→ 0.3	-19.8	1.2	-5.7	114.2*
20) CCC(=O)N1C[C@H](C)[C@H](OC)CN(C)C(=O)c2cc(NC(=O)C3CCOCC3)ccc2OC[C@H]1C
→ .	-16.8	-3.0	.	3.3

Among those listed so far, these have a cyano group.
Each structure is followed by: CDK5 inh	UUG fidelity	Cneo AK release	Rtt109 Vps75	C2C12 statin
3) C[C@H]1CN([C@@H](C)CO)C(=O)c2cc(-c3ccc(C#N)cc3)cnc2O[C@@H]1CN(C)C(=O)Nc1ccc(F)cc1
→ .	-5.2	1.9	.	-16.2
6) C[C@@H]1CN([C@H](C)CO)C(=O)c2cc(-c3ccc(C#N)cc3)cnc2O[C@@H]1CN(C)C(=O)Nc1ccc(F)cc1
→ .	22.4	82.9*	.	-0.5

(continued)
Each structure is followed by: CDK5 inh	UUG fidelity	Cneo AK release	Rtt109 Vps75	C2C12 statin
21) Cc1ccccc1-c1ccc2c(c1)O[C@@H](CN(C)CC1CC1)[C@@H](C)CN([C@H](C)CO)S2(=O)=O
→ .	21.7	1.3	.	-17.8
22) Cc1oc(-c2cccs2)nc1CN1CCC(CO)(CCOc2ccccc2)CC1
→ 0.2	.	.	12.6	.
23) CCOC(=O)C1(CCOC)CCN(Cc2nc(-c3cccs3)oc2C)CC1
→ 0.6	-2.9	4.5	-7.3	86.2*
24) CCOC(=O)N1CCN(C(=O)CN(Cc2ccccc2)S(=O)(=O)c2ccc(OC)c(C)c2)CC1
→ -0.6	-2.0	0.2	-6.3	.
25) CCOC(=O)N1CCN(C(=O)CN(Cc2ccccc2)S(=O)(=O)c2ccc(OC)c(Cl)c2)CC1
→ 0.4	3.7	2.0	0.7	122.5*
26) CCOC(=O)c1c(-c2ccccc2)csc1NC(=O)CCN1C(=O)c2ccccc2C1=O
→ 1.5	4.4	-0.4	-1.4	15.0
27) CCOC(=O)c1c(-c2ccc(-c3ccccc3)cc2)csc1NC(=O)CNCCN(C)C
→ 3.3	-22.9	85.1*	2.2	-6.5
28) Cc1ccc(NS(=O)(=O)c2ccc(-n3cccn3)cc2)cc1C
→ 0.7	-20.4	0.2	-3.6	164.1*
